{"sequences": {"note": "By UniProt entry, the sequences of proteins in these tests, tags left out.", "UniProt Q00987, whole entry": "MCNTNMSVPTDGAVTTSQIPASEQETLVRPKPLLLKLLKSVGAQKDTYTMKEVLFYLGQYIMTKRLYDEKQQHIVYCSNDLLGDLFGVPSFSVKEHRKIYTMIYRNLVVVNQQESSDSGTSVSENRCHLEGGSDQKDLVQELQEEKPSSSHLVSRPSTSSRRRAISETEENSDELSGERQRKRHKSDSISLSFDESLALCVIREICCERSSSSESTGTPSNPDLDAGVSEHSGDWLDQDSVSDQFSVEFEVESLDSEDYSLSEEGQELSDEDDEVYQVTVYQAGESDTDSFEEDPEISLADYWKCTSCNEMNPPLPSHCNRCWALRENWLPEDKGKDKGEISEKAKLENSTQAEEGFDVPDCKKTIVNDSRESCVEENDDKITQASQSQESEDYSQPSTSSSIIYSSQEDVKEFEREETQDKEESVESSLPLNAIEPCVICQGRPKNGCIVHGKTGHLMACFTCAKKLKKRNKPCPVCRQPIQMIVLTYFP"}, "source": "patent US10183912B2", "about": "“HDMX inhibitors and their use for cancer treatment” (priority 2014, dated 2019)", "target": "HDM2/p53 (Homo sapiens, UniProt Q00987)", "test": "ELISA of recombinant HDM2/p53 interaction", "format": "biochemical", "data": [{"smiles": "COc1ccc(C2=N[C@@H](c3ccc(Cl)cc3)[C@@H](c3ccc(Cl)cc3)N2C(=O)N2CCNC(=O)C2)c(OC(C)C)c1", "note": "[nutlin-3, reference compound]", "values": [{"measurement": "disruption of HDM2/p53 interaction", "result": "disrupts the interaction between p53 and HDM2"}]}]}
